Source: paper PMC10104807, “Modulation of tau tubulin kinases (TTBK1 and TTBK2) impacts ciliogenesis” (Scientific Reports, 2023)
Values joined by “and” are separate entries in the source; they are usually repeats but may differ in a detail not shown here. Equal entries are not always repeated.

Sequences of proteins named here, by UniProt entry; tags and fusion partners are left off. Residues count along the entry.
UniProt Q9Y4K4, whole entry: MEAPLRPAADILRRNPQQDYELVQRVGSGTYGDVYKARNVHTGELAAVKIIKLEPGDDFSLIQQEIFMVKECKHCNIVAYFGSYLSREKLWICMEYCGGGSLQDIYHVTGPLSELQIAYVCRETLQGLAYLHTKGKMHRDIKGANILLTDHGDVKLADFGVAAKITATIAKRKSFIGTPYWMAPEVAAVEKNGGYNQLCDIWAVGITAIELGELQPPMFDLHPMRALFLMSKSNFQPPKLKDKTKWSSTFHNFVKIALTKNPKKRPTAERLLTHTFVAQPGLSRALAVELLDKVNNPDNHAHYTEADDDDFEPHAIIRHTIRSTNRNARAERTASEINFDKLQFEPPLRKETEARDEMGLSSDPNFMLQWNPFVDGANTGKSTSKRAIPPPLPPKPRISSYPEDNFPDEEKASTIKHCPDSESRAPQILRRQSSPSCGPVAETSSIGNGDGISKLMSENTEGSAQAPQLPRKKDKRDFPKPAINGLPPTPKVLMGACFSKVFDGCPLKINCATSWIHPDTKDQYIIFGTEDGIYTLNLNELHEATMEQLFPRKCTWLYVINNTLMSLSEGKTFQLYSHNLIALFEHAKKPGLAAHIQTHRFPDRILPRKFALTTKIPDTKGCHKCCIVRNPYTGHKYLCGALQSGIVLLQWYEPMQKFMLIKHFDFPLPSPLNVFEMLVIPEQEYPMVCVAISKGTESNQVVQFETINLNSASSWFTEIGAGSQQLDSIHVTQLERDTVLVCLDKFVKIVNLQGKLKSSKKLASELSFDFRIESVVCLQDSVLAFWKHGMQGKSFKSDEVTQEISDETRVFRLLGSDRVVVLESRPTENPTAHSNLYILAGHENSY
UniProt Q7L7X3, whole entry: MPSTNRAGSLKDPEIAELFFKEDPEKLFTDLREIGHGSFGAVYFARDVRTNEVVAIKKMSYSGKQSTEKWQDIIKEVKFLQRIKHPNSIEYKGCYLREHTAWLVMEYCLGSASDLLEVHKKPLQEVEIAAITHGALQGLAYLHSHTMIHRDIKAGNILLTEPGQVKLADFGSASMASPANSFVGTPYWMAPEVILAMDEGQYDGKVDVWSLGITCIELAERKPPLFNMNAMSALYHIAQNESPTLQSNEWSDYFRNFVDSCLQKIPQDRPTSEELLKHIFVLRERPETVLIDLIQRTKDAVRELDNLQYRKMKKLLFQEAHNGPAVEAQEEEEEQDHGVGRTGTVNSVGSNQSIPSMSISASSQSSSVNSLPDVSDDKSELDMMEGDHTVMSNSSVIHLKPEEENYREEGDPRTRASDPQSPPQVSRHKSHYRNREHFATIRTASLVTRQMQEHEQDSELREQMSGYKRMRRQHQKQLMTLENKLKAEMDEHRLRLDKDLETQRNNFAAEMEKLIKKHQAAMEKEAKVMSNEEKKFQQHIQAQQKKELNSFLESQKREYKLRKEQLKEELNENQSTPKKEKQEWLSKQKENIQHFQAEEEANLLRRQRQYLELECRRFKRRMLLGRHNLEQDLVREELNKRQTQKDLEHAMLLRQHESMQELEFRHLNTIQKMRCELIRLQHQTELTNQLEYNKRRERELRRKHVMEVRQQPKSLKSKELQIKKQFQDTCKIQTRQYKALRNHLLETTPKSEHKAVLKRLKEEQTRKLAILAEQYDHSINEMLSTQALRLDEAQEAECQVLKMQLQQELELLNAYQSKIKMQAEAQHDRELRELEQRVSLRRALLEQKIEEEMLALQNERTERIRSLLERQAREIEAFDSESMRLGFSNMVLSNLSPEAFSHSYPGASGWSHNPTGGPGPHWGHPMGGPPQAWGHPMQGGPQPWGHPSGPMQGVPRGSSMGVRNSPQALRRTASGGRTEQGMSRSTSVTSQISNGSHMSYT
UniProt Q9UL54, whole entry: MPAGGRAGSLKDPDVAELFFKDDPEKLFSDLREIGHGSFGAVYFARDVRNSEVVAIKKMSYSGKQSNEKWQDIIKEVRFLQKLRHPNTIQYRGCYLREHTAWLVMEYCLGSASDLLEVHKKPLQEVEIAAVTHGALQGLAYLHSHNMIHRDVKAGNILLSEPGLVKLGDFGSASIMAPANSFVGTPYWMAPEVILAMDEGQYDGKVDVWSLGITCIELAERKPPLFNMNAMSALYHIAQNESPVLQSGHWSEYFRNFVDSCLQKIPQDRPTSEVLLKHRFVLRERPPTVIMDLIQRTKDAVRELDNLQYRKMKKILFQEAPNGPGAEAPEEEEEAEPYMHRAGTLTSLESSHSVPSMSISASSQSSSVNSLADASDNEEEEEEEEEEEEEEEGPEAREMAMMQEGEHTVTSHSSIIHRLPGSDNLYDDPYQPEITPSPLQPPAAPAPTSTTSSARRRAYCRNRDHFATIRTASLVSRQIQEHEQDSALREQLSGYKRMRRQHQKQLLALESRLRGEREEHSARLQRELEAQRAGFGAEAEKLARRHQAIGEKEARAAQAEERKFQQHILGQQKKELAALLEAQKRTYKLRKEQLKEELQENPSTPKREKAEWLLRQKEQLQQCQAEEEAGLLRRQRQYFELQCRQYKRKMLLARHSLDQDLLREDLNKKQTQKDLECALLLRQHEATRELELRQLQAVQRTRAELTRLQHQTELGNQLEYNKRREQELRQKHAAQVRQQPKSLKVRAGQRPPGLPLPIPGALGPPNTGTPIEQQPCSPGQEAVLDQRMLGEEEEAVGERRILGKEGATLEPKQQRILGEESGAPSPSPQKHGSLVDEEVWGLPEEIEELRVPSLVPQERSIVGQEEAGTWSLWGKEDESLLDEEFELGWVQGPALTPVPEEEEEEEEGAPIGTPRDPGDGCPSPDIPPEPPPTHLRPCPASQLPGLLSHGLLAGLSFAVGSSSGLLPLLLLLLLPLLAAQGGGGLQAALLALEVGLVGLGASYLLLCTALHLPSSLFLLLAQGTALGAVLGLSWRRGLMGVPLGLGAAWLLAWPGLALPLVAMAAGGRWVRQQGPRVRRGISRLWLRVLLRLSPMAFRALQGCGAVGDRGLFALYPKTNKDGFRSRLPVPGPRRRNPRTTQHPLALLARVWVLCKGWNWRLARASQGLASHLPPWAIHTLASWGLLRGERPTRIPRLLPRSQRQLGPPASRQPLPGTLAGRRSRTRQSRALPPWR
UniProt Q96PN8, whole entry: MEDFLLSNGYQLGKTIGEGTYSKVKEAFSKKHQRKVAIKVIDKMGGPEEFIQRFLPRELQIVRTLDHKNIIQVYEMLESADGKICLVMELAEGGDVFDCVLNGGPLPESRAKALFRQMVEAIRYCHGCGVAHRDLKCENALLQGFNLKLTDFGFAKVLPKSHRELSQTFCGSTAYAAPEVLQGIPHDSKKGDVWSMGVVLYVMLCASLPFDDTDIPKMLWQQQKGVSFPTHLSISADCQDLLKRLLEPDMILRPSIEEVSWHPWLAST
UniProt Q5TCY1, whole entry: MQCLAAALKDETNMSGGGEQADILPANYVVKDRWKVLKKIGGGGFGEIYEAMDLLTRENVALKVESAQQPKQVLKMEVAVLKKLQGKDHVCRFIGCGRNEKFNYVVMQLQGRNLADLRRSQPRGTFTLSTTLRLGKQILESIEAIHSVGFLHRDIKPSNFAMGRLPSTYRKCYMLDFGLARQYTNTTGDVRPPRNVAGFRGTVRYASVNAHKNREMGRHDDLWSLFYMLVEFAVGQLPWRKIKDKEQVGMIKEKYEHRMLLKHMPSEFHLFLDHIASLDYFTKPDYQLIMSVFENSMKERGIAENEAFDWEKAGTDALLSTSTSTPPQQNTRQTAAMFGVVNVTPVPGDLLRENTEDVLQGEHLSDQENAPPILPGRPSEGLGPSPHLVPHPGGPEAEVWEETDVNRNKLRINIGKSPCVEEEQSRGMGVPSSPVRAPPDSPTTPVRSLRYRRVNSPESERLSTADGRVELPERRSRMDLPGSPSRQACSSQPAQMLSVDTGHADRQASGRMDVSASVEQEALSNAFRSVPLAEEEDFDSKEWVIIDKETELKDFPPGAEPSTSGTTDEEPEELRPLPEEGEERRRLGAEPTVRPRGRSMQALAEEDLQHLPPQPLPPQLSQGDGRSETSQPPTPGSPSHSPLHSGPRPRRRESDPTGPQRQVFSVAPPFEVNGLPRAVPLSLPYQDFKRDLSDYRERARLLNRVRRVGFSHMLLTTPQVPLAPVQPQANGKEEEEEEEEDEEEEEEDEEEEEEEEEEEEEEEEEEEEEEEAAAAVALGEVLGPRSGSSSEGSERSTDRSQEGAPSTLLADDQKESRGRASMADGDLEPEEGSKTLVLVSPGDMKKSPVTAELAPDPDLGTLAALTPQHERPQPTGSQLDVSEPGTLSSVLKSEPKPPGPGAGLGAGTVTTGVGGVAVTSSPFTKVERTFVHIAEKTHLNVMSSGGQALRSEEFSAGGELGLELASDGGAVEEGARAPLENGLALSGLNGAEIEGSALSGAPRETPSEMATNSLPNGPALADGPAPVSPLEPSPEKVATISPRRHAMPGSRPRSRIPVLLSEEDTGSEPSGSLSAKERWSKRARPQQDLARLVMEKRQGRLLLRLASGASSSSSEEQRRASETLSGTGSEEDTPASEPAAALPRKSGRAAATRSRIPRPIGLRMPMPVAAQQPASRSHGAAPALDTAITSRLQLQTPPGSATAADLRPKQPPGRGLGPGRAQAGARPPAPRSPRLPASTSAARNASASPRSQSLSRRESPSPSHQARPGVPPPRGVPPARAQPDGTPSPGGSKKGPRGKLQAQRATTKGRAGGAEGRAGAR
UniProt Q5TCY1, 13-320 limits assumed: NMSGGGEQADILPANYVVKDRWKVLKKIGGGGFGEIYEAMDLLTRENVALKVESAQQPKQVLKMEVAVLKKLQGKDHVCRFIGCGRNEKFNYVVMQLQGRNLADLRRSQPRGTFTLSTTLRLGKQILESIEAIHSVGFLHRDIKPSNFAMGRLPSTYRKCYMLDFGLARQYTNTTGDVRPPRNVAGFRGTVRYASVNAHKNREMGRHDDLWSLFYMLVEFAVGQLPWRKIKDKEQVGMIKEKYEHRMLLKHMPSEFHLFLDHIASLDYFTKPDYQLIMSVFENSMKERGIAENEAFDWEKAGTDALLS
UniProt Q6IQ55, whole entry: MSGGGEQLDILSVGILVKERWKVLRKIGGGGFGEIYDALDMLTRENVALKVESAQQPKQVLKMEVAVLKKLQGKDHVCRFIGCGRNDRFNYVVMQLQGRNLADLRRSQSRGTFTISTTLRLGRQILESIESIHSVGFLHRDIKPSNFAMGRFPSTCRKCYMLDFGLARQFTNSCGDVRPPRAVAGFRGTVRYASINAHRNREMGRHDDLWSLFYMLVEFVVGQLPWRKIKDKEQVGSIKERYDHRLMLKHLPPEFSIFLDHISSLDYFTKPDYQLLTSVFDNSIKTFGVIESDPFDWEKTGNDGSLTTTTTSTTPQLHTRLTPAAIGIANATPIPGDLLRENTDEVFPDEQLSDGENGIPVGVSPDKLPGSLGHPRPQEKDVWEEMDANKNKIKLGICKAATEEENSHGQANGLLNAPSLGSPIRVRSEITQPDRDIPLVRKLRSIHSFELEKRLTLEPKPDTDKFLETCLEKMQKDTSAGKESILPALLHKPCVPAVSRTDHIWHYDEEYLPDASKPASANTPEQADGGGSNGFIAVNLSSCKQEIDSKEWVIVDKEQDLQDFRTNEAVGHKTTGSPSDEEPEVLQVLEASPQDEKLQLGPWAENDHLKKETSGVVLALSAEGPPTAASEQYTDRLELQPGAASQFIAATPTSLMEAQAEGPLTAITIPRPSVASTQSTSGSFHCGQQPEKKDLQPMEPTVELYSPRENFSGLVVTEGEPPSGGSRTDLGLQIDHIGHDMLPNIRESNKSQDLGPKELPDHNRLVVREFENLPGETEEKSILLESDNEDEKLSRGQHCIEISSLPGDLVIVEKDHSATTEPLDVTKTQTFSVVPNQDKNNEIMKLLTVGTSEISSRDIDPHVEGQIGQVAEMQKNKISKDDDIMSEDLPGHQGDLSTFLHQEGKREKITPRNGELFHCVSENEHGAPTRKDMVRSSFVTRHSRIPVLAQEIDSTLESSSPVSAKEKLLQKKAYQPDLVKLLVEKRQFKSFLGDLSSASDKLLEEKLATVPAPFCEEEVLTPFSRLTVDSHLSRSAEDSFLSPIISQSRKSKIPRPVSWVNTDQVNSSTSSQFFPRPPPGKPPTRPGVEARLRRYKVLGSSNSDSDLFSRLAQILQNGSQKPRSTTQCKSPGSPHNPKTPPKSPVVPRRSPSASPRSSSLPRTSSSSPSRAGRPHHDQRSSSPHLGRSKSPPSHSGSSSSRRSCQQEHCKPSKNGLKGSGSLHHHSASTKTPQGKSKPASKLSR
UniProt Q6IQ55, 21-284 limits assumed: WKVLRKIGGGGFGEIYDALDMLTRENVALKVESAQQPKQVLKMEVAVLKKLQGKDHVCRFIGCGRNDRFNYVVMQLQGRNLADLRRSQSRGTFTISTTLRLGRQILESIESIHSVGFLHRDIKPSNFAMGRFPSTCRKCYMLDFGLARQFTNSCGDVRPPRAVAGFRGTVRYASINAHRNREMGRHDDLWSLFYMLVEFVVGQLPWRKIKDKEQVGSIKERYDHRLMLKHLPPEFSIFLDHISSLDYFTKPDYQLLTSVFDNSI

Experiments:
HIPK1 = HIPK1 (Homo sapiens, UniProt Q86Z02); test: Eurofins enzymatic radiometric kinase assay; assay type: biochemical; conditions: ATP at Km, duplicate
MAP4K5 [1] = biological target: T1, MAP4K5 (Homo sapiens, UniProt Q9Y4K4); test: Eurofins enzymatic radiometric kinase assay; assay type: biochemical; conditions: ATP at Km, duplicate
MARK3 = MARK3 (Homo sapiens, UniProt P27448); test: Eurofins enzymatic radiometric kinase assay; assay type: biochemical; conditions: ATP at Km, duplicate
MARK4 = MARK4 (Homo sapiens, UniProt Q96L34); test: Eurofins enzymatic radiometric kinase assay; assay type: biochemical; conditions: ATP at Km, duplicate
PAK3 = PAK3 (Homo sapiens, UniProt O75914); test: Eurofins enzymatic radiometric kinase assay; assay type: biochemical; conditions: ATP at Km, duplicate
PAK4 = PAK4 (Homo sapiens, UniProt O96013); test: Eurofins enzymatic radiometric kinase assay; assay type: biochemical; conditions: ATP at Km, duplicate
PAK5 = PAK5 (Homo sapiens, UniProt Q9P286); test: Eurofins enzymatic radiometric kinase assay; assay type: biochemical; conditions: ATP at Km, duplicate
PAK6 = PAK6 (Homo sapiens, UniProt Q9NQU5); test: Eurofins enzymatic radiometric kinase assay; assay type: biochemical; conditions: ATP at Km, duplicate
TAOK1 = TAOK1 (Homo sapiens, UniProt Q7L7X3); test: Eurofins enzymatic radiometric kinase assay; assay type: biochemical; conditions: ATP at Km; for TAOK1 PoC at 1 μM: duplicate
TAOK2 [2] = biological target: T2, TAOK2 (Homo sapiens, UniProt Q9UL54); test: Eurofins enzymatic radiometric kinase assay; assay type: biochemical; conditions: ATP at Km; for TAOK2 PoC at 1 μM: duplicate
TAOK3 = TAOK3 (Homo sapiens, UniProt Q9H2K8); test: Eurofins enzymatic radiometric kinase assay; assay type: biochemical; conditions: ATP at Km, duplicate
TSSK1 = TSSK1 (Homo sapiens, UniProt Q9BXA7); test: Eurofins enzymatic radiometric kinase assay; assay type: biochemical; conditions: ATP at Km, duplicate
TSSK2 = TSSK2 (Homo sapiens, UniProt Q96PF2); test: Eurofins enzymatic radiometric kinase assay; assay type: biochemical; conditions: ATP at Km, duplicate
TSSK3 = TSSK3 (Homo sapiens, UniProt Q96PN8); test: Eurofins enzymatic radiometric kinase assay; assay type: biochemical; conditions: ATP at Km; for TSSK3 PoC at 1 μM: duplicate
TSSK4 = TSSK4 (Homo sapiens, UniProt Q6SA08); test: Eurofins enzymatic radiometric kinase assay; assay type: biochemical; conditions: ATP at Km, duplicate
TTBK1 = TTBK1 (Homo sapiens, UniProt Q5TCY1); test: Eurofins enzymatic radiometric kinase assay; assay type: biochemical; conditions: ATP at Km; for TTBK1 PoC: 1 μM, duplicate, lower = greater inhibition
TTBK2 = TTBK2 (Homo sapiens, UniProt Q6IQ55); test: Eurofins enzymatic radiometric kinase assay; assay type: biochemical; conditions: ATP at Km; for TTBK2 PoC: 1 μM, duplicate, lower = greater inhibition
[3] = test system: 403 wild-type (WT) human kinases; test: DiscoverX scanMAX kinome-wide selectivity; assay type: binding; conditions: for # scanMAX kinases with PoC < 10: 1 μM; for S10(1 μM): share of 403 WT human kinases with PoC < 10 at 1 μM
TTBK1 kinase domain = TTBK1 kinase domain (Homo sapiens, UniProt Q5TCY1); test: Thermal shift assay; assay type: binding; conditions: for ΔTm TTBK1: kinase domain 2 µM, inhibitor 10 µM
TTBK2 kinase domain = TTBK2 kinase domain (Homo sapiens, UniProt Q6IQ55); test: Thermal shift assay; conditions: kinase domain 2 µM, inhibitor 10 µM
[4] = test system: phospho-TDP-43 (Ser409/410); test: Western blot of SH-SY5Y cells, phospho-TDP-43
total TDP-43 = test: Western blot of SH-SY5Y cells, total TDP-43
SH-SY5Y cells = test: Toxicity in SH-SY5Y cells; assay type: cell-based; conditions: 24 h treatment with 5 μM
Procedure: Exposure of SH-SY5Y cells to ethacrynic acid (EA) is reported to induce TDP-43 phosphorylation by causing cell death via glutathione depletion[23],[32]. Following a published protocol, we treated SH-SY5Y cells with 5 μM of either 9 or 10 one hour prior to the addition of 40 μM EA[23]. Cells were harvested after 24 h. […] One potential explanation is that our phospho-TDP-43 signal at baseline is robust in control cells. Consistent with the 24 h treatment without EA addition (Fig. S4), total TDP-43 was decreased (~ 44%) by 5 μM of 10, but phospho-TDP-43 was not affected. Limited toxicity was observed after 24 h treatment with 5 μM of 9 or 10. Based on the appearance of the cells and experiments carried out in parallel using our PIKfyve probe, we propose that at 5 μM these compounds are potently inhibiting PIKfyve[33]. As shown in Table S2 and Fig. S1, both compounds bind with high affinity to PIKfyve. PIKfyve inhibition leads to disruption of lysosome function that drives cell death. LysoTracker staining overlaps with the enlarged vesicles observed at the 5 μM dose (Fig. S4), which is consistent with PIKfyve inhibitor treatment[33],[34].
SH-SY5Y cells were exposed to compound for the time period indicated, with or without co-treatment with ethacrynic acid (EA), in Figs. 3/S4/S5 before harvesting lysates. […] Lysates were collected in RIPA, sonicated, and quantified using BCA assay. […]

CSNK1E = CSNK1E (Homo sapiens, UniProt P49674); test: DiscoverX scanMAX binding assay; conditions: 1 μM
MAP4K5 [5] = biological target: T1, MAP4K5; test: DiscoverX scanMAX binding assay; conditions: 1 μM
MYLK4 = MYLK4 (Homo sapiens, UniProt Q86YV6); test: DiscoverX scanMAX binding assay; conditions: 1 μM
RIPK5 = RIPK5 (Homo sapiens, UniProt Q6XUX3); test: DiscoverX scanMAX binding assay; conditions: 1 μM
TAOK2 [6] = biological target: T2, TAOK2; test: DiscoverX scanMAX binding assay; conditions: 1 μM
[7] = 72 h treatment, 5 μM, one replicate, data not shown
[8] = 5 μM one hour prior to 40 μM ethacrynic acid, harvested after 24 h

| Structure (SMILES) | HIPK1 PoC at 1 μM (HIPK1) | MAP4K5 PoC at 1 μM (MAP4K5 [1]) | MARK3 PoC at 1 μM (MARK3) | MARK4 PoC at 1 μM (MARK4) | PAK3 PoC at 1 μM (PAK3) | PAK4 PoC at 1 μM (PAK4) | PAK5 PoC at 1 μM (PAK5) | PAK6 PoC at 1 μM (PAK6) | TAOK1 PoC at 1 μM (TAOK1) | TAOK2 PoC at 1 μM (TAOK2 [2]) | TAOK3 PoC at 1 μM (TAOK3) | TSSK1 PoC at 1 μM (TSSK1) | TSSK2 PoC at 1 μM (TSSK2) | TSSK3 PoC at 1 μM (TSSK3) | TSSK4 PoC at 1 μM (TSSK4) | TTBK1 PoC (TTBK1) | TTBK2 PoC (TTBK2) | # scanMAX kinases with PoC < 10 [3] | S10(1 μM) [3] | ΔTm TTBK1 (TTBK1 kinase domain) | also measured |
| --- | --- | --- | --- | --- | --- | --- | --- | --- | --- | --- | --- | --- | --- | --- | --- | --- | --- | --- | --- | --- | --- |
| CCC(O)(C#Cc1ccc2[nH]c3c(c2c1)-c1nc(N)ncc1CCC3)CC | 124 PoC | 2 PoC | 77 PoC | 60 PoC | 103 PoC | 36 PoC | 60 PoC | 40 PoC | 36 PoC | 31 PoC | 43 PoC | 38 PoC | 76 PoC | 5 PoC | 102 PoC | 41 PoC | 17 PoC | 7 | 0.017 | 8.5 °C | IC50 (TAOK1; read-out: TAOK1 IC50, Enzymatic, Eurofins): 780 nM; IC50 (TAOK2 [2]; read-out: TAOK2 IC50, Enzymatic, Eurofins): 860 nM; IC50 (TSSK3; read-out: TSSK3 IC50, Enzymatic, Eurofins): 240 nM; IC50 (TTBK1; read-out: TTBK1 enzymatic IC50, dose–response 9-pt curve): 380 nM and < 600 nM and 384 nM; IC50 (TTBK2; read-out: TTBK2 enzymatic IC50, dose–response 9-pt curve): 180 nM and < 300 nM and 175 nM; melting temperature (Tm) shift higher versus AMG28 (TTBK1 kinase domain; TTBK1/2 thermal shift): 1.2–1.8 °C; ΔTm TTBK2 (TTBK2 kinase domain): 7.7 °C; change in phospho-TDP-43 expression ([4]; 24 h treatment, up to 5 μM): no changes; decrease in phospho-TDP-43 expression ([4]; 48 h treatment, up to 5 μM): did not change; decrease in phospho-TDP-43 expression [4, 7]: 13–16%; decrease in total TDP-43 expression (total TDP-43; 24 h treatment, up to 5 μM): no changes; decrease in total TDP-43 expression (total TDP-43; 48 h treatment, up to 5 μM): did not change; decrease in total TDP-43 expression (total TDP-43; [7]): 13–16%; toxicity (SH-SY5Y cells): Limited toxicity; CSNK1E % control at 1000nM / DiscoverX PoC value (CSNK1E): 13 % control; MAP4K5 % control at 1000nM / DiscoverX PoC value (MAP4K5 [5]): 21 % control; MYLK4 % control at 1000nM / DiscoverX PoC value (MYLK4): 2.4 % control; RIPK5 % control at 1000nM / DiscoverX PoC value (RIPK5): 4.1 % control; TAOK2 % control at 1000nM / DiscoverX PoC value (TAOK2 [6]): 66 % control |
| CCC(C)(O)C#Cc1ccc2[nH]c3c(c2c1)-c1nc(N)ncc1CCC3 (racemic) | 89 PoC | 1 PoC | 48 PoC | 39 PoC | 117 PoC | 12 PoC | 17 PoC | 14 PoC | 9 PoC | 14 PoC | 18 PoC | 16 PoC | 58 PoC | -3 PoC | 88 PoC | 37 PoC | 18 PoC | 22 | 0.055 | 8.1 °C | ΔTm TTBK2 (TTBK2 kinase domain): 7.4 °C; effect on phospho-TDP-43 [4, 8]: not affected; decrease in phospho-TDP-43 expression ([4]; 48 h treatment, up to 5 μM): ~ 45%; decrease in total TDP-43 (total TDP-43; [8]): ~ 44%; decrease in total TDP-43 expression (total TDP-43; 24 h treatment, up to 5 μM): ~ 40%; decrease in total TDP-43 expression (total TDP-43; 48 h treatment, up to 5 μM): ~ 60%; toxicity (SH-SY5Y cells): Limited toxicity; CSNK1E % control at 1000nM / DiscoverX PoC value (CSNK1E): 8.9 % control; MAP4K5 % control at 1000nM / DiscoverX PoC value (MAP4K5 [5]): 9.6 % control; MYLK4 % control at 1000nM / DiscoverX PoC value (MYLK4): 0.6 % control; RIPK5 % control at 1000nM / DiscoverX PoC value (RIPK5): 2.4 % control; TAOK2 % control at 1000nM / DiscoverX PoC value (TAOK2 [6]): 7.9 % control |
